# scFv variants of Ab-95 (light chain) against a SARS-CoV-2 spike peptide

Binding partner: SARS-CoV-2 spike HR2 peptide, sequence PDVDLGDISGINAS.

Each scFv is VH, a (GGGGS)3 linker, VL, as in the parent Ab-95, and differs from it in the CDRs of the light chain only.
VH: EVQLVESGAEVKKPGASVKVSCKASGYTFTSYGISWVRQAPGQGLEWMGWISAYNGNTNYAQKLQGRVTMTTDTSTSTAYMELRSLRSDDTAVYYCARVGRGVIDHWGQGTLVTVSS
VL: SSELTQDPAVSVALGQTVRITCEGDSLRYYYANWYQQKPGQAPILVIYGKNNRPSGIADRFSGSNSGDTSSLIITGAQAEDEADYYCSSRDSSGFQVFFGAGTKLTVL

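The parent was found by panning a naive human phage display library on the peptide. Library AAYL52 holds single substitutions and randomly drawn double and triple substitutions in the CDRs. In AlphaSeq, yeast of one mating type display the scFv and yeast of the other type display the target. The frequency of each diploid, read from paired DNA barcodes, reflects how well the two displayed proteins bind. Read counts were normalised to the haploid input and turned into Kd by a linear fit to BCL2-family pairs of known affinity, for each replicate. There are three technical replicates.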

Sequences are complete VL domains. Kd is apparent (estimated from mating counts) and averaged on the log scale over replicates with a signal. Smaller is tighter. An entry "nd" has no value in the source: the pair was not observed among the diploids in any replicate. This suggests poor binding but is not conclusive. As a blank, each scFv also met three strains without target: over library AAYL52, 28% of these pairings were detected, typically at 8.2 µM and seldom below 800 nM. The control count says in how many pairings with the empty strains this scFv gave a signal.

Variant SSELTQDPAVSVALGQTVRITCEGDSLRYYYANWYQQKPGQAPILVIYGKNPDPSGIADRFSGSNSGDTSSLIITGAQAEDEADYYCSSRDSGGFQVFFGAGTKLTVL showed 7.4 µM (1 of 3 replicates; controls 2 of 9).
Variant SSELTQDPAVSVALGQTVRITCEGCWLRYYYANWYQQKPGQAPILVIYGKNNRPSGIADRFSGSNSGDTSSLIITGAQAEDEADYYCSSRDSEGFQVFFGAGTKLTVL showed 210 µM (2 of 3 replicates; controls 5 of 9).
Variant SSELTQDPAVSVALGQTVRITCEGDSLRYMYANWYQQKPGQAPILVIYGKNNRPSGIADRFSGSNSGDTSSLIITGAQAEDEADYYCSSRDSSGIQVIFGAGTKLTVL showed 4.1 µM (2 of 3 replicates; controls 2 of 9).
Variant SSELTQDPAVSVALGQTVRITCEGDSLRYYYANWYQQKPGQAPILVIYGKNNRPSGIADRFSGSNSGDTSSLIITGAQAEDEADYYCSERDSSMFQAFFGAGTKLTVL showed 2.4 µM (2 of 3 replicates; controls 5 of 9).
Variant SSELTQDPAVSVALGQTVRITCEGASLRRYYANWYQQKPGQAPILVIYGRNNRPSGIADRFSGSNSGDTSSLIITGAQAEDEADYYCSSRDSSGFQVFFGAGTKLTVL showed 670 nM (3 of 3 replicates; controls 3 of 9).
Variant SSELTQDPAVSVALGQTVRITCEGDSLVYYYANWYQQKPGQAPILVIYGLHNRPSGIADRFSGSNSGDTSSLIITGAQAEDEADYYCSSRDSSGFQVFFGAGTKLTVL showed 5.3 µM (2 of 3 replicates; controls 1 of 9).
Variant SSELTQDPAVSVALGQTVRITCEGDDYRYYYAGWYQQKPGQAPILVIYGKNNRPSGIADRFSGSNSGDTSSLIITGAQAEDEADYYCSSRDSSGFQVFFGAGTKLTVL showed 46 µM (2 of 3 replicates; controls 7 of 9).
Variant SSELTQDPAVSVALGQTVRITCEGDSTRYYEANWYQQKPGQAPILVIYSKNNRPSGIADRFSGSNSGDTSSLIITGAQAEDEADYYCSSRDSSGFQVFFGAGTKLTVL showed 520 nM (3 of 3 replicates; controls 3 of 9).
Variant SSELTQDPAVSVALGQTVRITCEGDSLRYYYANWYQQKPGQAPILVIYQKNNRPSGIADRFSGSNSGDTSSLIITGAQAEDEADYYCSSLDSSGFQVIFGAGTKLTVL showed 3.0 µM (1 of 3 replicates; controls 2 of 9).
Variant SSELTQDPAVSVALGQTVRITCEGASLRYYYANWYQQKPGQAPILVIYGKNNKPSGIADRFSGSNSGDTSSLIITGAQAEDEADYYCSSRDSSGFQWFFGAGTKLTVL showed 300 nM (3 of 3 replicates; controls 2 of 9).
Variant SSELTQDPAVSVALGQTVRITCNGDSLRYYYANWYQQKPGQAPILVIYGKNNELSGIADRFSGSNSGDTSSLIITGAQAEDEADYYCSSRDSSGFQVFFGAGTKLTVL showed 1.6 µM (1 of 3 replicates; controls 2 of 9).
Variant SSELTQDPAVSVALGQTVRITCEGDSLRYYYDNWYQQKPGQAPILVIYPKLNRPSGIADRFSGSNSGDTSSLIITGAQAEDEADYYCSSRDSSGFQVFFGAGTKLTVL showed nd (0 of 3 replicates; controls 4 of 9).
Variant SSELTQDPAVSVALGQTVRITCEGDSHHYYYANWYQQKPGQAPILVIYGHNNRPSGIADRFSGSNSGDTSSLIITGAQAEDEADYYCSSRDSSGFQVFFGAGTKLTVL showed 5.7 µM (2 of 3 replicates; controls 4 of 9).
Variant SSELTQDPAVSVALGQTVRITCEGDSLHQYYANWYQQKPGQAPILVIYWKNNRPSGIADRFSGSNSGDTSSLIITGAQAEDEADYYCSSRDSSGFQVFFGAGTKLTVL showed 3.0 µM (1 of 3 replicates; controls 1 of 9).
Variant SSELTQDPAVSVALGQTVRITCEGDSLRYYYANWYQQKPGQAPILVIYGKNHRPAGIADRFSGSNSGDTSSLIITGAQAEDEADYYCSSRDSSGFQYFFGAGTKLTVL showed 2.4 µM (3 of 3 replicates; controls 4 of 9).
Variant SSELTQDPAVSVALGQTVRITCTGDSLRYYYANWYQQKPGQAPILVIYGPNNRPQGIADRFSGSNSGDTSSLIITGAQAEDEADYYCSSRDSSGFQVFFGAGTKLTVL showed 120 nM (3 of 3 replicates; controls 4 of 9).
Variant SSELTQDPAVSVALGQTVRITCEGDMLRYYYANWYQQKPGQAPILVIYGKNNLPSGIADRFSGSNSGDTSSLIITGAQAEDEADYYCDSRDSSGFQVFFGAGTKLTVL showed 12 µM (2 of 3 replicates; controls 2 of 9).
Variant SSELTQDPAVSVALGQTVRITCEGNSLRYYYANWYQQKPGQAPILVIYGKNNRASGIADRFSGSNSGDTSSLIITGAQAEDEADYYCKSRDSSGFQVFFGAGTKLTVL showed 1.3 µM (3 of 3 replicates; controls 1 of 9).

Extract of 3 entries:

VL,Kd,detected,signal with controls
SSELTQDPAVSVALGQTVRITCEGDSLRYYYANWYQQKPGQAPILVIYGKNNRPSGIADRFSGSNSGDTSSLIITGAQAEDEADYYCSERDSSMFQAFFGAGTKLTVL,2.4 µM,2/3,5/9
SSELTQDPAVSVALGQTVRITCEGDSTRYYEANWYQQKPGQAPILVIYSKNNRPSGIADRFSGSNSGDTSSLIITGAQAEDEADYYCSSRDSSGFQVFFGAGTKLTVL,520 nM,3/3,3/9
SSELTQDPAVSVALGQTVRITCEGDSLRYYYANWYQQKPGQAPILVIYGKNPDPSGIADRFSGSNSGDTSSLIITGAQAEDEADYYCSSRDSGGFQVFFGAGTKLTVL,7.4 µM,1/3,2/9

Source: Engelhart et al. 2022 (doi:10.1038/s41597-022-01779-4), MIT Lincoln Laboratory and A-Alpha Bio; data file from the FLAb repository.